Consider three molecules from patent US8431614B2 (LTT Bio-Pharma Co., Ltd., priority 2009, dated 2013).

This series concerns male Wister rats. Nature of the series: Formation of a gastric ulcer induced by a loxoprofen derivative (ulcer index, gastric mucosa PGE2). The settings on record: oral, tested form: sodium salt; for ulcer index (total area of gastric ulcers) / formation of an ulcer: rats fasted 18 hours, 8 hours after dosing, amount equivalent to 40 or 50 mg/kg of loxoprofen (FIGS. 1, 2); for amount of the gastric mucosa PGE2: rats, amount equivalent to 40 mg/kg of loxoprofen, ELISA (FIG. 3).

The structures appear in SMILES notation.

`CC(C(=O)O)c1ccc(CC2CCCC2=O)cc1-c1ccc(O)cc1` (centres unmarked): the “ulcer index (total area of gastric ulcers) / formation of an ulcer” value was “hardly observed” and the “amount of the gastric mucosa PGE2” value is recorded as “more than that when loxoprofen was used”.
Take `CC(C(=O)O)c1ccc(CC2CCCC2=O)cc1Br` (centres unmarked): the “amount of the gastric mucosa PGE2” value is given as “more than that when loxoprofen was used”.
With `CC(C(=O)O)c1ccc(CC2CCCC2=O)cc1-c1ccc(N)cc1` (centres unmarked), the “ulcer index (total area of gastric ulcers) / formation of an ulcer” value is listed as “hardly observed” and the “amount of the gastric mucosa PGE2” value was “more than that when loxoprofen was used”.
